This note sets out measurements from PMC7470810 (Acta Pharmacologica Sinica, 2019).

The conditions of series [1]: rat, in vivo.
The target of series [2] is T1, BCRP (Homo sapiens, UniProt Q9UNQ0). As to conditions: MDCKII-BCRP cells.
Series [3] addresses T1, BCRP. The following applies: HCMEC/D3 cells, AZT 1 μM, 120 min.

Take Fluorescein sodium: the “leakage of fluorescein sodium into brain (BBB integrity), BDL vs SO rats” value in series [1] was “did not impair the integrity of the BBB”.
Turning to Ko143, the “effect of incubation with Ko143 on uptake of AZT” value at BCRP [2] (AZT 1 μM, 120 min) was “markedly increased”. In addition, at BCRP [3], the “effect of coincubation with Ko143 on uptake of AZT” value was “markedly increased”.
Regarding unconjugated bilirubin, on BCRP [2] (unconjugated bilirubin 0, 10 and 25 μM), the “effect of unconjugated bilirubin on uptake of AZT” value is on record as “concentration-dependently increased”.
